Measurements reported in article PMC11943675, “Studies of Piper auritum Kuntz’s Mutagenic and Antimutagenic Properties Using the Ames Test” (Metabolites, 2025).

Test system: S. typhimurium TA98
Experiment: Antimutagenic assay against BaP (TA98 strain with metabolic activation)
Assay type: cell-based, Salmonella typhimurium
Conditions: TA98 +S9, BaP 10 µg/plate; 1000 µg/plate
Description: The antimutagenic assay was performed as previously described; however, in this case, we only used strain TA98, and the test compound in the Salmonella culture was BaP (10 µg/plate) plus the S9 fraction.
The toxicity of the tested agents was assessed by observing background bacterial growth on minimal agar plates due to traces of histidine in the medium.

C=CCc1ccc2c(c1)OCO2 [safrole, 5-(2-propenyl)-1,3-benzodioxone]
inhibitory capacity relative to the effect of BaP: 65%
